The values that follow come from patent publication US12594337B2, “Human serum albumin in formulations” (Regeneron Pharmaceuticals, Inc., priority 2019, dated 2026).

Data set [1] can be described thus: Prevention of fatty acid particle formation in PS80/lipase solution, turbidity (absorbance at 450 nm). The data set is classed as physicochemical. To be noted: 25° C., six hours; for effect on particle formation (appearance of particles, turbidity) / onset of turbidity: 0.1% PS80, lipase. Here is the method:
Particle detection by turbidity measurement. A plate-based assay was used to detect the presence of particles by monitoring absorbance at 450 nm over time, typically 2-4 hours. The assay detects particles larger than approximately 20 nm, based on fundamental principles of light scattering (assessment of turbidity). Purified lipase was added to TKC buffer containing 0.1% polysorbate 80 at final concentration ranging from 0.4 to 5 μg/mL. The absorbance was measured at 5 minute intervals with intermittent shaking on a Spectra Max 340 plate reader held at 25° C. Baseline values were established by measuring absorbance of 0.1% polysorbate 80 without addition of lipase. Instrument control, data acquisition, and analysis were performed using SoftMax Pro software (version 6.5).
HSA contains several high and low affinity binding sites for fatty acids and therefore has the potential to act as a fatty acid sink, which could inhibit particle formation upon polysorbate hydrolysis. To test the effectiveness of HSA in preventing particle formation, 0.1% PS80 was incubated with 0.5 μg lipase in the presence of increasing concentrations of FAF-HSA at 25° C. and the solution turbidity was monitored by measuring the absorbance at 450 nm for six hours.
HSA loaded with stearic acid (SA-HSA) was prepared by adding 70 mM pure stearic acid (Sigma) in ethanol to FAF-HSA in a 3:1 molar ratio, incubating at room temperature for 30-60 minutes at 25° C., then centrifuging at 22,000 rcf for 4 minutes to pellet un-bound steric acid, followed by addition of 0.5 mg lipase and 0.1% PS80, and absorbance at 450 nm was monitored for six hours.
To test specificity of fatty acid particle mitigation to HSA, different concentrations of human polyclonal IgG were added to solution containing 0.5 μg lipase and 0.1% PS80 at 25° C. and absorbance at 450 nm was monitored for six hours.
The increase in turbidity can likely attributed to protein lyophilization. To determine if the increase in turbidity was due to the way that the protein was processed (i.e., lyophilized), a solution-state mAb in two ways was prepared; one that was unmodified from its purified solution state, and one that mimicked the manufacturer's lyophilization process used for the poly IgG preparation. The monoclonal antibody was lyophilized and reconstituted per the polyclonal IgG manufacturer's instructions to replicate processing, and then added to a solution containing 0.5 μg lipase and 0.1% PS80 at 25° C. and absorbance at 450 nm was monitored for six hours. […] The plots depict absorbance at 450 nm as a function of time for various monoclonal IgG concentrations. A positive control sample with lipase and PS80 but without IgG (open diamonds) provides the upper limit for absorbance (˜0.55).

Data set [2] is described as follows: Solubilization of pre-formed fatty acid particles by FAF-HSA, turbidity (absorbance at 450 nm). The data set is classed as physicochemical. The method, then: Particles were prepared by incubating 2.5 μg/mL lipase with PS80 in TKC buffer at room temperature for 3 hours, followed by centrifugation. The supernatant was discarded and the pellet was washed with buffer one time and reconstituted by sonication. For particle generation in the presence of IgG, human polyclonal IgG was added to a final concentration of 7.5 mg/mL. Mechanically dispersed pellets were deposited on 5 μm polycarbonate membrane filters (RapID; Monmouth Junction, NJ). Raman spectroscopy was performed on the particle using a RapID Single Particle Explorer with a 785 nm monochromatic laser at 100% intensity/10 second exposure time in the 50× objective to generate spectra specific to the sample.
To test the ability of HSA to solubilize pre-formed particles in solution, particles were prepared (See Materials and Methods) and diluted to obtain a maximum absorbance of ˜0.5 OD. […] A positive control sample with lipase and PS80 but without HSA (FIG. 8, closed triangles) provides the upper limit for absorbance (˜0.5).

For the substance “SA-HSA: HSA loaded with stearic acid, prepared by adding stearic acid to FAF-HSA in a 3:1 molar ratio”, in data set [1], the “effect on particle formation (appearance of particles, turbidity)” value was “particle formation was not inhibited” and the onset of turbidity entry is “shorter compared to samples containing equivalent amounts of FAF-HSA”.
For the substance “FAF-HSA: lyophilized fatty acid free Human Serum Albumin purchased from Sigma-Aldrich”, in data set [1] (7.5 mg/mL FAF-HSA, 0.1% PS80, 0.5 μg lipase), the “absorbance at 450 nm over the time period” value was “did not show any appreciable absorbance”. In data set [1] (0.1% PS80, 0.5 μg lipase), the “concentration giving complete inhibition of turbidity” value came to 7.5 mg/mL. Further, the “final absorbance at 450 nm (turbidity)” value in data set [1] (0.1% PS80, 0.5 μg lipase, increasing FAF-HSA concentrations, versus control without FAF-HSA) is “decrease in the final absorbance (lower turbidity)”. For the same substance, in data set [1], the “effect on particle formation (appearance of particles, turbidity)” value is recorded as “dose dependent response” and the onset of turbidity entry is listed as “temporal delay in the onset of turbidity”. The “HSA concentrations at which pre-formed particles were not fully solubilized (plateaus)” value in data set [2] (pre-formed particles diluted to ~0.5 OD) is recorded as “less than or equal to 3.5 mg/mL”. For the same substance, the “solution turbidity upon addition to pre-formed fatty acid particles” value in data set [2] (pre-formed particles diluted to ~0.5 OD, six hours) is given as “rapidly decreased”. The “HSA concentrations necessary to fully disrupt pre-formed particles” value in data set [2] (within the limits of the turbidity assay) was “above 5.5 mg/mL”.
